# PKA-R1A activ: activators of PKA-R1A complex. activation, % at 11.4 µM. P00514+P68181. AID 504707. PKA-R1A dissociation, Cy5-IP20 fluorescence polarization; scaled: DMSO 0%, 113 µM cGMP 100%. hit rate 0.083% among 340,000;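 active = percent activation above the mean of all tested compounds plus 3 SD, cut at about 19% in these data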;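 also: higher means more PKAc released from R1A so a rise in polarization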
# ABCB6 inh MLPCN: inhibitors of human ABC transporter ABCB6 | K562-ABCB6 porphyrin accumulation, flow cytometry, 1 h; hits give low values | hit rate 0.19% among 360,000 | fluorescence ratio to DMSO, % at 10 µM;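 active = fluorescence ratio to DMSO below 75%, the collection mean minus 3 SD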;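 also: signal is porphyrin accumulated inside mitochondria; 100% equals median channel fluorescence of DMSO control wells; lower ratio means ABCB6 inhibition with less porphyrin fluorescence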
# p-CIP stab down: compounds decreasing mouse p/CIP protein stability | F442A p/CIP-EGFP cells, EGFP fluorescence, 16 h | decrease of EGFP signal, % at 10 µM | hit rate 0.01% among 290,000;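 active = EGFP signal decrease of at least 30% at 10 µM or well 3 SD below plate mean, unless failing retest; inactive = the rest, including hits failing retest or dose response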
# PKA-R2B activ: activates the human PKA-R2B holoenzyme complex. P22694+P31323. PKA-R2B holoenzyme dissociation, Cy5-IP20 fluorescence polarization; R2B truncated from residue 108, S112A mutant; 0% DMSO only, 100% 113 µM cGMP. activation, % at 11.4 µM. hit rate 0.079% among 340,000;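 active = activation above a cutoff set at the mean over all compounds plus 3 SD, cut at about 18% in these data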;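 also: higher means more holoenzyme dissociation and a rise in polarization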
# UUG fidelity: alters start codon recognition fidelity in yeast | S. cerevisiae UUG-firefly luciferase reporter, luminescence/redox ratio | activity score, % at 18.7 µM | hit rate 0.13% among 350,000 | AID 602363;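 active means replicate mean at a twofold rise or more, about +100% in these data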;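 further: firefly luciferase made from a UUG start codon reports start codon fidelity; reporter light over untreated wells divided by growth signal over untreated wells; some hits fall short of that in this replicate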
# Exocytosis inh: lytic granule exocytosis inhibition | TALL-104 LAMP-1 surface exposure, flow cytometry; cells stimulated with thapsigargin and PMA | inhibition, % at 10 µM | hit rate 0.66% among 360,000 | AID 651702;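 active = inhibition above about 55%, limit read from the data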
# Granule exo CP1: blocks lytic granule exocytosis. shares compounds with Exocytosis inh. TALL-104 cells, LAMP-1 externalization, flow cytometry; stimulated with PMA plus thapsigargin. inhibition, % at 10 µM. hit rate 11% among 1,500; in the data active = inhibition above about 60%;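 also: 0% = stimulated vehicle wells and 100% = unstimulated wells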
# Starred values were filed as active, the others as inactive; / = no result given. Shown are actives, neighbours in structure and some others; about 0.94% of the full set was active somewhere.
# The first 2 entries (preview)
no. | Molecule | PKA-R1A activ | ABCB6 inh MLPCN | p-CIP stab down | PKA-R2B activ | UUG fidelity | Exocytosis inh | Granule exo CP1
1 | COc1ccc(OC)c(-c2csc(NC(=O)Cc3ccccc3)n2)c1 | -1 | 100 | -1 | 8 | -5 | 59* | -13
2 | COc1cccc(CC(=O)Nc2nc(-c3cc(OC)ccc3OC)cs2)c1 | -2 | 97 | -6 | -6 | / | -6 | /

# This part in full, repeating the preview:
no. | Molecule | PKA-R1A activ | ABCB6 inh MLPCN | p-CIP stab down | PKA-R2B activ | UUG fidelity | Exocytosis inh | Granule exo CP1
1 | COc1ccc(OC)c(-c2csc(NC(=O)Cc3ccccc3)n2)c1 | -1 | 100 | -1 | 8 | -5 | 59* | -13
2 | COc1cccc(CC(=O)Nc2nc(-c3cc(OC)ccc3OC)cs2)c1 | -2 | 97 | -6 | -6 | / | -6 | /
3 | COc1ccc(-c2csc(NC(C)=O)n2)cc1OC | -9 | 94 | 8 | -6 | -43 | 1 | /
4 | COc1ccc(CC(=O)Nc2nc(-c3cc(OC)ccc3OC)cs2)cc1 | -1 | 95 | -6 | 5 | / | 1 | /
5 | C[C@H](CO)N1C[C@H](C)[C@H](CN(C)C(=O)C2CCC2)Oc2cc(-c3cncnc3)ccc2S1(=O)=O | / | / | / | / | -3 | / | /
6 | O=C(Nc1cccc(-c2csc(Nc3cccc(C(F)(F)F)c3)n2)c1)c1ccccc1 | -4 | 100 | 3 | -10 | -18 | 75* | -8
7 | O=C(OCc1nc2ccccc2s1)c1ccc(Br)o1 | 7 | 101 | 4 | -4 | / | 1 | /
8 | O=C(OCc1nc2ccccc2s1)c1ccco1 | -3 | 102 | 13 | -5 | -6 | 75* | -4
9 | C[C@@H]1CCCCO[C@@H](CN(C)CC2CCCCC2)[C@@H](C)CN([C@@H](C)CO)C(=O)c2cc(NC(=O)CCC(F)(F)F)ccc2O1 | / | / | / | / | 39 | / | /
10 | COc1ccc(C(CC(=O)N2CCCC(C)C2)c2c(O)cc(OC)cc2OC)cc1 (stereo not drawn) | -2 | 98 | -5 | -6 | -6 | 9 | /
11 | COc1cc(O)c(C(CC(=O)N2CCCC(C)C2)c2cc(OC)c(OC)c(OC)c2)c(OC)c1 (stereo not drawn) | 5 | 92 | -3 | -6 | -13 | 58* | -15
12 | O=C(CN1CCN(Cc2cccc3ccccc23)CC1)NCCc1ccccc1 | -8 | 91 | 3 | 11 | -9 | 78* | -13
13 | Cc1noc(C)c1NC(=O)Nc1ccc2c(c1)C(=O)N([C@@H](C)CO)C[C@@H](C)[C@@H](CN(C)C(=O)Nc1ccccc1)O2 | / | / | / | / | -12 | / | /
14 | COc1ccccc1Cc1c(-c2ccco2)nc2c3ccccc3ccn12 | / | 135 | / | / | / | 76* | -3
15 | COc1ccccc1Cc1c(-c2ccco2)nc2c(C)cc(Br)cn12 | / | 103 | / | / | 0 | 40 | /
16 | COC(=O)[C@@H]1C[C@@]2(O)[C@H](O)[C@H](O)[C@H](O)C[C@H]2N1Cc1cccc2ccccc12 | 6 | 99 | -8 | -2 | -7 | 70* | -4
17 | O=C(C[C@@H]1CC[C@H](NC(=O)Nc2cc(F)ccc2F)[C@@H](CO)O1)NCCCN1CCOCC1 | / | / | / | / | -10 | / | /
18 | COc1ccccc1N1C(=O)CC(Sc2nccc(C)n2)C1=O (stereo not drawn) | -6 | 97 | 1 | -1 | -26 | -3 | /
19 | COc1ccccc1N1C(=O)CC(Sc2n[nH]c(-c3cccc(C)c3)n2)C1=O (stereo not drawn) | -4 | 103 | -6 | -21 | -24 | 59* | 52
20 | O=C(NCCN1CCOCC1)c1ccccc1Cl | -4 | 99 | 11 | -4 | -2 | 12 | /
21 | Cc1ccc(C(=O)NCCN2CCOCC2)c(Cl)c1 | -12 | 162 | -2 | 0 | -14 | 56* | -13
22 | COc1cccc(CNC(=O)C[C@@H]2C=C[C@@H](NC(=O)C3CCOCC3)[C@H](CO)O2)c1 | / | / | / | / | -7 | / | /
23 | CCNC(=O)C[C@@H]1CC[C@@H]2[C@@H](COc3ccc(NC(=O)Nc4cccc(Cl)c4)cc3C(=O)N2C)O1 | / | / | / | / | 0 | / | /
24 | CCC(C)[C@H](NC(=O)Nc1ccccc1F)C(=O)OC (stereo partly drawn) | 8 | 87 | -5 | -3 | / | 83* | -13
25 | COc1cc(C)cc(OC)c1OCC(=O)Nc1cc(C)on1 | -7 | 94 | / | 2 | 9 | 69* | -4

# Fetched one by one from above:
no. | Molecule | PKA-R1A activ | ABCB6 inh MLPCN | p-CIP stab down | PKA-R2B activ | UUG fidelity | Exocytosis inh | Granule exo CP1
4 | COc1ccc(CC(=O)Nc2nc(-c3cc(OC)ccc3OC)cs2)cc1 | -1 | 95 | -6 | 5 | / | 1 | /
18 | COc1ccccc1N1C(=O)CC(Sc2nccc(C)n2)C1=O (stereo not drawn) | -6 | 97 | 1 | -1 | -26 | -3 | /
3 | COc1ccc(-c2csc(NC(C)=O)n2)cc1OC | -9 | 94 | 8 | -6 | -43 | 1 | /

# (continued)
no. | Molecule | PKA-R1A activ | ABCB6 inh MLPCN | p-CIP stab down | PKA-R2B activ | UUG fidelity | Exocytosis inh | Granule exo CP1
26 | Cc1oc(-c2ccc(Cl)cc2)nc1CS(=O)CC(=O)NCCCN1CCN(Cc2ccccc2)CC1 (stereo not drawn) | -7 | 96 | -10 | -2 | -2 | 75* | -8
27 | CCSc1nc2c(c(=O)[nH]c(=O)n2C)n1CC(O)COc1ccccc1 (stereo not drawn) | -12 | 101 | -35 | -12 | / | 87* | -2
28 | CCCSc1nc2c(c(=O)[nH]c(=O)n2C)n1CC(O)COc1ccccc1 (stereo not drawn) | 8 | 94 | -6 | -1 | / | -2 | /
29 | O=C(Cn1sc2ccccc2c1=O)Nc1ccc(Br)cc1 | -3 | 103 | / | -4 | -21 | 26 | /
30 | O=C(Cn1sc2ccccc2c1=O)Nc1ccc(F)cc1 | -1 | 100 | / | -10 | -24 | 64* | 104*
31 | CCc1ccccc1N(C)S(=O)(=O)c1ccc(-c2cc(C)no2)s1 | -6 | 100 | -8 | -19 | 0 | 68* | -10
32 | CCN(c1ccc(OC)cc1)S(=O)(=O)c1ccc(-c2cc(C)no2)s1 | -4 | 100 | 7 | -11 | -12 | 75* | -5
33 | COc1ccc(N2CCN(S(=O)(=O)c3ccc(-c4cc(C)no4)s3)CC2)cc1 | -5 | 94 | 4 | 0 | -18 | -1 | /
34 | Cc1ccc(S(=O)(=O)Nc2ccc3c(c2)CC(=O)N([C@@H](C)CO)C[C@H](C)[C@@H](CN(C)C)O3)cc1 | / | / | / | / | 13 | / | /
35 | C[C@@H]1CN([C@H](C)CO)C(=O)c2cccc(NC(=O)c3ccc(-c4nccs4)cc3)c2O[C@H]1CN(C)C(=O)Nc1cccc2ccccc12 | / | / | / | / | 6 | / | /
36 | Cc1ccc(S(=O)(=O)Nc2ccc3c(c2)C(=O)N([C@H](C)CO)C[C@H](C)[C@H](CN(C)C(=O)CCC(F)(F)F)OCCCC[C@@H](C)O3)cc1 | / | / | / | / | -3 | / | /
37 | O=C1N[C@@H](Cc2ccccc2)COC(=O)[C@H](Cc2ccc(F)cc2)C/C=C\C[C@H]1CC(=O)N(CCO)Cc1ccccc1 | 0 | 95 | / | 2 | -4 | 12 | /
38 | O=C1CC/C=C\C[C@@H](CC(=O)N(CCO)Cc2ccccc2)C(=O)N[C@H](Cc2ccccc2)CO1 | 3 | 102 | / | 0 | -8 | 81* | -15
39 | Cc1cccc(CCN(CC(=O)NCc2ccc(F)cc2)C(=O)c2csnn2)c1 | -11 | 94 | 6 | 2 | -6 | 68* | -4
40 | CCOC(=O)c1cc(C(=O)c2cccs2)n2ccc(C(C)=O)cc12 | -3 | 100 | -8 | -8 | / | 97* | -2
41 | CCOC(=O)c1cc(C(C)=O)n2ccccc12 | 7 | 95 | -10 | -2 | -7 | 2 | /
42 | O=C(Nc1cccc(Cl)c1)N1C[C@@H]2[C@H](c3ccccc31)[C@H](CO)N2C(=O)C1CCCC1 | / | / | / | / | 20 | / | /
43 | CC1CC(C)CN(C(=O)Cn2nnc(-c3ccccc3)n2)C1 (stereo not drawn) | 7 | 100 | -16 | -1 | -12 | -1 | /
44 | CC1CCN(C(=O)Cn2nnc(-c3ccccc3)n2)CC1 | -2 | 94 | -12 | -7 | -14 | 58* | -12
